Assay: Solubility in water at 25° C. over time, with pH of filtered solution
Settings: for solubility in water: room temperature

Carvedilol Monocitrate Monohydrate [Carvedilol Mono-Citrate Salt]
pH value when dissolved in water: ~3
Aqueous Solubility (Table 11, 25° C., 1 hr): 1.63 mg of carvedilol free base/mL of solution
Aqueous Solubility (Table 11, 25° C., 4 hr): 1.47 mg of carvedilol free base/mL of solution
Aqueous Solubility (Table 11, 25° C., 24 hr): 1.07 mg of carvedilol free base/mL of solution
Aqueous Solubility (Table 11, 25° C., 48 hr): 1.02 mg of carvedilol free base/mL of solution
pH of filtered solution (Table 11, 1 hr): 3.5
pH of filtered solution (Table 11, 4 hr): 3.4
pH of filtered solution (Table 11, 24 hr): 3.0
Aqueous Solubility (Table 13, 25° C., 1 hr): 1.64 mg of Carvedilol free base/mL of solution
Aqueous Solubility (Table 13, 25° C., 4 hr): 1.74 mg of Carvedilol free base/mL of solution
Aqueous Solubility (Table 13, 25° C., 24 hr): 1.46 mg of Carvedilol free base/mL of solution
pH of solution (Table 13, 1 hr): 3.3
pH of solution (Table 13, 4 hr): 3.2
pH of solution (Table 13, 24 hr): 3.2
aqueous solubility compared with free base (in words): much better aqueous solubility than the free base
solubility in water (1 hour): 1630 µg/mL
solubility in water (48 hour): 1020 µg/mL

Source: US20050169994A1, “Carvedilol free base, salts, anhydrous forms or solvates thereof, corresponding pharmaceutical compositions, controlled release formulations, and treatment or delivery methods” (priority 2003, published 2005)
